The assay addresses T1, B1 receptors (Oryctolagus cuniculus, UniProt P48748).
T1 construct: The thorax was opened and the thoracic aorta carefully removed; from tissue; host or cells: rabbit thoracic aorta spiral strips
T1 sequence (P48748 1-352): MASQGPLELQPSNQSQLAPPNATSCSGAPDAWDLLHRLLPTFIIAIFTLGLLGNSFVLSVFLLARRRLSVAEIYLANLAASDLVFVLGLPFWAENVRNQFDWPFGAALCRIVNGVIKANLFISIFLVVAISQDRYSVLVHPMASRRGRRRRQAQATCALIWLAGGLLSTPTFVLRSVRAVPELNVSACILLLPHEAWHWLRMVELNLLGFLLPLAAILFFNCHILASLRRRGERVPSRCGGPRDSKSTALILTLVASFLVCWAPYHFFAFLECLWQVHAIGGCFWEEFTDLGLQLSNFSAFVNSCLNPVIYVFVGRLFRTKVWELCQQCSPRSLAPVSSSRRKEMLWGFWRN
Briefly: B1 receptor bioassay, rabbit aorta strips contracted with des-Arg9-BK. Format: cell-based. The note with it: 50% reduction of sustained contraction to 10^-7 M des-Arg9-BK; read-out: Rabbit Aorta p IC50 B1 receptors (converted). On the procedure: Male New Zealand white rabbits, weight range 2-3 kg, were killed by an overdose of pentobarbital i.v. The thorax was opened and the thoracic aorta carefully removed. […] The tissues were placed under 1 gm isometric tension and allowed to equilibrate for 1H. At time 1h, a concentration-effect curve was constructed to the selective B1 agonist des-Arg^9 -BK. This was repeated at time 3 hours. […] Once the contraction was sustained, the compound to be assayed was applied to the tissue bath in a cumulative manner. The concentration of the compound which produced a 50% reduction of the sustained contraction was calculated. The negative logarithm of this concentration was calculated and expressed as the […].

The structures appear in SMILES notation.

`CC(C)C[C@H](NC(=O)[C@@H]1CCCN1C(=O)[C@H](CO)NC(=O)[C@H](Cc1ccccc1)NC(=O)CNC(=O)[C@@H]1CCCN1C(=O)[C@@H]1CCCN1C(=O)[C@H](CCCN=C(N)N)NC(=O)[C@@H](N)CCCCN)C(=O)O` [des-Arg^10 -Leu^9 -kallidin, reference compound]: the half-inhibitory concentration (IC50) (commonly the concentration at which inhibition is half-maximal) is 12.6 nM.

Values taken from patent publication US5648336A (University of Colorado, priority 1994, dated 1997).
